US11020395B2, “Cycloalkyl substituted triazole compounds as agonists of the APJ receptor” (AMGEN INC., priority 2016, dated 2021)

Chains of the proteins cited; added tags and fusions are not shown.
UniProt P35414, whole entry: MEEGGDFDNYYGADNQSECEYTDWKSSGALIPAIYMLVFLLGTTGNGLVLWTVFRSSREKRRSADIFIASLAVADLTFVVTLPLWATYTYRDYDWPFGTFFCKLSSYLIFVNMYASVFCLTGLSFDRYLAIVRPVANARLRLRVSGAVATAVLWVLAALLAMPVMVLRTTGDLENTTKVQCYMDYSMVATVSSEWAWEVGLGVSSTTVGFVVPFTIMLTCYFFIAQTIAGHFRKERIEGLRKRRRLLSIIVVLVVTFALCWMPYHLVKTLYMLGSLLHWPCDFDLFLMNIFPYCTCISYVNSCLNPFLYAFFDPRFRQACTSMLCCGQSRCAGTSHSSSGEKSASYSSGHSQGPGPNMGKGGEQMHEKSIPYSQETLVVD

Molecular target: APJ receptor (Homo sapiens (Human), UniProt P35414)
Test: [35S]GTPγS binding assay on membranes from CHO cells stably expressing human APJ receptor
Format: biochemical
Conditions: read-out: Activity hAPJ SPA EC50 IP, [35S]GTPγS SPA
Procedure: [^35S]GTPγS Binding The human APJ receptor was cloned by polymerase chain reaction and the gene encoding the receptor was subcloned in pFLAG-CMV™-3 expression vector (Sigma, Saint Louis, Mo. USA) in-house at Amgen. A GTPγS binding assay was performed on membranes prepared from CHO cells stably expressing human APJ receptor. The optimum experimental conditions for the concentrations of GDP, MgCl2, and NaCl in the assay buffer were initially determined. […] Incubation was at RT for 90 min and the microplate was read using a ViewLux™ ultra HTS Microplate Imager (PerkinElmer, Inc.). All the results presented are means of several independent experiments and analyzed by non-linear regression methods using the commercially available program Prism (GraphPad, San Diego, Calif.) providing the EC50 values detailed in Table 25.

Compound	EC50 [µM]
COc1ncnc(OC)c1-n1c(NS(=O)(=O)[C@@H](C)[C@H](OC)c2ncc(Cl)cn2)nnc1C1CCC(OC)CC1 (some centres unmarked)	0.019
COc1cccc(OC)c1-n1c(NS(=O)(=O)[C@@H](C)[C@H](OC)c2ncc(Cl)cn2)nnc1C1CCC(OC)C1 (single isomer, unassigned)	0.015
